Entries after “also recorded” stand apart in the source; their conditions may differ.
Tested on: myoblasts isolated from a patient affected by Duchenne muscular dystrophy
Test: NE-induced myoblast death, DMD patient myoblasts treated with human NE
Format: cell-based
From the text: The number of live cells in each condition was counted and plotted as percentage of the number of live cells in the untreated (Control) condition.

Question: Which results are given for `CC(=O)C1=C(C)N(c2cccc(C(F)(F)F)c2)C(=O)N[C@@H]1c1ccc(C#N)nc1` [BAY-678]?
Answer: rescue of NE-induced myoblast death (number of live cells as percentage of untreated Control) (DMD patient myoblasts treated with human NE, FIG. 1D): similarly effective at rescuing NE-induced myoblast cell death; also recorded: similarly effective at blocking NE-induced myoblast death; effectiveness against human NE compared with mouse NE (comparison of FIG. 1D (hNE) and FIG. 1E (mNE)): most effective against human NE
